Amino acid sequences for entries named in this document (tags omitted).
UniProt P42866, whole entry: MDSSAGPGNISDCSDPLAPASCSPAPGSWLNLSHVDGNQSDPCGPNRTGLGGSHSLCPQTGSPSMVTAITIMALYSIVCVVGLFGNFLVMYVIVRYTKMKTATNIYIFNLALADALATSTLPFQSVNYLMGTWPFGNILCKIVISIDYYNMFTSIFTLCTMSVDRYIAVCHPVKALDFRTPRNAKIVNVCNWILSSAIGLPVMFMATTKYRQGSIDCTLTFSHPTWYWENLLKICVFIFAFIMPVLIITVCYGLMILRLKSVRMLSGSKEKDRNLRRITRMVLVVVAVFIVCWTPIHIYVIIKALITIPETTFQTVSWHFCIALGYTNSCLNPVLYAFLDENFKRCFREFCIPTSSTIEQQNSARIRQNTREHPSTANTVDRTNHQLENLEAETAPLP
UniProt P32300, whole entry: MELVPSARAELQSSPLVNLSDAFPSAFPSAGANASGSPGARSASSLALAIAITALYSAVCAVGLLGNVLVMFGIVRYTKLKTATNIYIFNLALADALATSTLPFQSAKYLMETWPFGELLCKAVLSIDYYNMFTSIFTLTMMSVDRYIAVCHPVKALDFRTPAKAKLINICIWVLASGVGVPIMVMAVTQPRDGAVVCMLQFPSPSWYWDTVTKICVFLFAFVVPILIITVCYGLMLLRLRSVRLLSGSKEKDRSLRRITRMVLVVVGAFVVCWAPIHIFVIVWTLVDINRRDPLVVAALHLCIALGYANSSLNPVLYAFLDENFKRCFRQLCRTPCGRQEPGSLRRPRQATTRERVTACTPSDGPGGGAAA
UniProt P33534, whole entry: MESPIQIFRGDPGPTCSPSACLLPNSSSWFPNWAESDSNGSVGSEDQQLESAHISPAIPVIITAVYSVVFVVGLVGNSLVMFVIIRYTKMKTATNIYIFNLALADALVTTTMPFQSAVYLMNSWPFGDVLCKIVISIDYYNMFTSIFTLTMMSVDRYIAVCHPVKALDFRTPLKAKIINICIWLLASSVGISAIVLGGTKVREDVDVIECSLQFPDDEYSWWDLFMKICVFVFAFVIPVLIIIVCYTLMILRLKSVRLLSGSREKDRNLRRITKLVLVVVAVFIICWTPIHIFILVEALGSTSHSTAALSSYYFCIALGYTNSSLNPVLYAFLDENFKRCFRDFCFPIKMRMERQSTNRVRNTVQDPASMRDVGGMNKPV
UniProt P41144, whole entry: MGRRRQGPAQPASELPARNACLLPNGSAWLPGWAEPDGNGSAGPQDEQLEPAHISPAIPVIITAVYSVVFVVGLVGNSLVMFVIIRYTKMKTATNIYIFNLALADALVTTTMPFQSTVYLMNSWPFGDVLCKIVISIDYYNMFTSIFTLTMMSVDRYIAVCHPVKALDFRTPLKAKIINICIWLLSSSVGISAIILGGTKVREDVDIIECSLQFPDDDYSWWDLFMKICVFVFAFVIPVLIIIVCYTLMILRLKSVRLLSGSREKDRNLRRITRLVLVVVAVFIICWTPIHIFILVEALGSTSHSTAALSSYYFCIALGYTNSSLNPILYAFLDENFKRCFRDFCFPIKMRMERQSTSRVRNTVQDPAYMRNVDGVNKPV

In ChEMBL document CHEMBL1127843, “2-(3,4-Dichlorophenyl)-N-methyl-N-[(1S)-1-(3-isothiocyanatophenyl)-2-(1-pyrrolidinyl)ethyl]acetamide: an opioid receptor affinity label that produces selective and long-lasting kappa antagonism in mice” (J Med Chem, 1994):

Experiments:
[1] = target: Mu-type opioid receptor (Mus musculus) (UniProt P42866); experiment: Ratio of ED50 of compound to mu opioid receptor antagonist beta-funaltrexamine (FMN) at 10.18 umol/kg administarted sc
[2] = target: Delta-type opioid receptor (Mus musculus) (UniProt P32300); experiment: Ratio of ED50 of compound to delta opioid receptor antagonist naltrindole (NTI) at 44.44 umol/kg administarted sc
[3] = target: Kappa-type opioid receptor (Mus musculus) (UniProt P33534); experiment: Ratio of ED50 of compound to kappa opioid receptor antagonist norbinaltorphimine (nor-BNI) at conc. of 12.25 umol/kg administarted sc
[4] = target: Kappa-type opioid receptor (Cavia porcellus) (UniProt P41144); experiment: Agonist potency of compound was evaluated towards kappa opioid receptor in absence of antagonist in guinea pig ileum(GPI)

**Q.** Which results are given for `CN(C(=O)Cc1ccc(Cl)c(Cl)c1)[C@H](CN1CCCC1)c1ccccc1`?
**A.** Ratio [1]: 1.72; Ratio [2]: 1.19; Ratio [3]: 2.31; Ke [4]: 0.05 nM
